For this test, the target named is ROCK2 (Homo sapiens, UniProt O75116). Description: ROCK2 kinase inhibition assay (Caliper LABCHIP, FITC peptide substrate). The conditions noted are these: read-out: ROCK2 IC50; 5 μM ATP, 1.5 μM peptide substrate; value ranges.

By UniProt entry, the sequences of proteins in these tests, tags left out.
UniProt O75116, whole entry: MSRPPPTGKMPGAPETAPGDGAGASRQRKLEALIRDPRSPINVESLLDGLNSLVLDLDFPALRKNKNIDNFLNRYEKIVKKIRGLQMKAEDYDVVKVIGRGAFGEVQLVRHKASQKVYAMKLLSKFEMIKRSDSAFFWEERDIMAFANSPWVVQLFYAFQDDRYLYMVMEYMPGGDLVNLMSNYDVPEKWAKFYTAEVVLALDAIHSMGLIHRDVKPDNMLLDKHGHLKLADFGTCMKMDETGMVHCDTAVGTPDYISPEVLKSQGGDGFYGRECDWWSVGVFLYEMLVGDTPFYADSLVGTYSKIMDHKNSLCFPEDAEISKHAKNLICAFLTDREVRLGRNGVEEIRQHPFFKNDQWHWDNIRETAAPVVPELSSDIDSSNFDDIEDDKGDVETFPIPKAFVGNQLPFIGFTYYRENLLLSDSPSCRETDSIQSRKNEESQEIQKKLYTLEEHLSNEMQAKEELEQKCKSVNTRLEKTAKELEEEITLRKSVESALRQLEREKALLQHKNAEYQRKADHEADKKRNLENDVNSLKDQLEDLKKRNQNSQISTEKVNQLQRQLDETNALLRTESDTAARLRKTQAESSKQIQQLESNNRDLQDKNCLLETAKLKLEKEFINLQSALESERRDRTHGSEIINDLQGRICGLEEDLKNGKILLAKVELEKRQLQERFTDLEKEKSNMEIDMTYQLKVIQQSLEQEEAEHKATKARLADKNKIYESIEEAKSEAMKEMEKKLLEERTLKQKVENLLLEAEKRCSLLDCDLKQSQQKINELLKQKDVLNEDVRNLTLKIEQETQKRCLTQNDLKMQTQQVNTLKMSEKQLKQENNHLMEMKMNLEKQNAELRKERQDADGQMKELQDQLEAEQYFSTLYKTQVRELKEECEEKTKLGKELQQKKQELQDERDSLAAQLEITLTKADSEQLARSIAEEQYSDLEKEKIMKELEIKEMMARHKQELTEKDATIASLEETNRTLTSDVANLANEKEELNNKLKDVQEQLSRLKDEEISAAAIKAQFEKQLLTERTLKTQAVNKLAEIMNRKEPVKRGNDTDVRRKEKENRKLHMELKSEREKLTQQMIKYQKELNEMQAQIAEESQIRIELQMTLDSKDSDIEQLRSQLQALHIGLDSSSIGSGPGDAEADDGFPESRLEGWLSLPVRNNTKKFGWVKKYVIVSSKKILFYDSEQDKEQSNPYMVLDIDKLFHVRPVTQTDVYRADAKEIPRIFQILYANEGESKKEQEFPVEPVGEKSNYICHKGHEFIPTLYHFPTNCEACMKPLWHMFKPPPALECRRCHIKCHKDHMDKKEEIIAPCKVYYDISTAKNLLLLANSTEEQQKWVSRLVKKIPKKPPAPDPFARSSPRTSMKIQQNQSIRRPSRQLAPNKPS

For orientation: IC50 means the concentration needed to halve the response being measured. Turning to `COc1cccc(CN2CCN(c3ccc(-c4ccnc5[nH]ccc45)c(OC)n3)C2=O)c1`, the IC50 lay in the range of 20.1 to 200 nM.

For the origin of these results see patent publication US10123993B2, “Cyclic ureas as inhibitors of rock” (BRISTOL-MYERS SQUIBB COMPANY, priority 2015, dated 2018).
